Measured values taken from ChEMBL document CHEMBL4196003, “The selectivity and bioavailability improvement of novel oral anticoagulants: An overview” (Eur J Med Chem, 2018).
pIC50: −log10 of the molar value.

Chains of the proteins cited; added tags and fusions are not shown. Residues count along the entry.
UniProt P00742, 41-179 limits assumed: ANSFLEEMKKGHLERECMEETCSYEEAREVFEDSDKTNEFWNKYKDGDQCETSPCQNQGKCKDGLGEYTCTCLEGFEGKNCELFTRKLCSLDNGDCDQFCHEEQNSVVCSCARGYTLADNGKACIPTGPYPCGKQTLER
UniProt P00742, 235-488 limits assumed: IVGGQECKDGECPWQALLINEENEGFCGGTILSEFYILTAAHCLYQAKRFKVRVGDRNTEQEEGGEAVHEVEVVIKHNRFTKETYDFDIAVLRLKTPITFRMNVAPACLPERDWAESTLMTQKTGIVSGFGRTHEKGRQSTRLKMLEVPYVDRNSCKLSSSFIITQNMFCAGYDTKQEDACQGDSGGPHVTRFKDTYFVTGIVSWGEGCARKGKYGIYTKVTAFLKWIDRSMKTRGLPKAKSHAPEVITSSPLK

Biological target: Coagulation factor X (Homo sapiens, UniProt P00742)

- pIC50: < 4.52
Structure (SMILES): CC(C)Nc1ccc(-c2cc(N)cc(N)c2)n(CC(=O)NCc2ccc(C(=N)N)cc2)c1=O
